Measured values from paper PMC6403082 (International Journal of Neuropsychopharmacology, 2018).

The chains behind the UniProt entries cited, without tags or fusion partners. Residues count along the entry.
UniProt Q13224, 27-1484: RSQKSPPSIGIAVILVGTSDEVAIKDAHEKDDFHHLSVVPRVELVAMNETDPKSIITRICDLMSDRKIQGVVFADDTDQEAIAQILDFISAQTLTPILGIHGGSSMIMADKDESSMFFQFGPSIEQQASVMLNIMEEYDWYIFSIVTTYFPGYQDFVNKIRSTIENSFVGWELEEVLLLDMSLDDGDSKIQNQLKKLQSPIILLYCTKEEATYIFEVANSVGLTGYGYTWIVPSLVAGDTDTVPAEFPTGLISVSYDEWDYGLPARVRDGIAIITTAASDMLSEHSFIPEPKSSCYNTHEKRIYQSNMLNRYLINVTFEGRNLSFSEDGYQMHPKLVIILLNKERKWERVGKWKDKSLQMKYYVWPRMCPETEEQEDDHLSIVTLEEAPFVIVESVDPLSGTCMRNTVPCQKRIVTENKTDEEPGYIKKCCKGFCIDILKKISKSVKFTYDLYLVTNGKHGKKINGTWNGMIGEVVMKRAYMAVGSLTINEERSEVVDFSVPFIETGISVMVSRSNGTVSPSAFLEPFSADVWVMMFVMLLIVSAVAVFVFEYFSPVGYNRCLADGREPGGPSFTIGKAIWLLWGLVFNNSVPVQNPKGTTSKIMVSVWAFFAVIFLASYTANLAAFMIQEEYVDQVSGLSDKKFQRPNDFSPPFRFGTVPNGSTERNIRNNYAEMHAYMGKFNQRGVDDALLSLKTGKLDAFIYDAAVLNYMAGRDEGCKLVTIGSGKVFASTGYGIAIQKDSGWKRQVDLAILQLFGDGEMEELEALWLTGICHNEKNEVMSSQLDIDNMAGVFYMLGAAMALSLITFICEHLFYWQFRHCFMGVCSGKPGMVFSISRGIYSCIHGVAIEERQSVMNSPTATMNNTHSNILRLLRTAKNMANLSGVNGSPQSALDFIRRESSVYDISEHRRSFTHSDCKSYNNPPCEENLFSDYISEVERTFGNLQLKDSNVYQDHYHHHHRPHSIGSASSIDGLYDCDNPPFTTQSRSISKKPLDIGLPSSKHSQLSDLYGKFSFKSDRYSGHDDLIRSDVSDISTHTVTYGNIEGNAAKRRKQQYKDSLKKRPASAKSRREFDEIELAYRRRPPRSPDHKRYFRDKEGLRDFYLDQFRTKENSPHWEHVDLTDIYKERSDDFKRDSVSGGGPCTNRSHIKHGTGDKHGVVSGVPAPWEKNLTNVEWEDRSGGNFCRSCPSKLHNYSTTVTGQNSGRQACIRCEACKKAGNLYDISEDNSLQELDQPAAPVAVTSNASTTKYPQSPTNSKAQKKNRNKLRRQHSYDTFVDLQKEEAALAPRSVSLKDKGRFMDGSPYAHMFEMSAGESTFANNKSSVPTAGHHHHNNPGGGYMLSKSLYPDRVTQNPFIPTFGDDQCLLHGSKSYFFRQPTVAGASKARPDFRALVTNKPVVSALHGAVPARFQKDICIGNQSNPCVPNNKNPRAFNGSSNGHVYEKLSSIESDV
UniProt Q12879, 23-1464: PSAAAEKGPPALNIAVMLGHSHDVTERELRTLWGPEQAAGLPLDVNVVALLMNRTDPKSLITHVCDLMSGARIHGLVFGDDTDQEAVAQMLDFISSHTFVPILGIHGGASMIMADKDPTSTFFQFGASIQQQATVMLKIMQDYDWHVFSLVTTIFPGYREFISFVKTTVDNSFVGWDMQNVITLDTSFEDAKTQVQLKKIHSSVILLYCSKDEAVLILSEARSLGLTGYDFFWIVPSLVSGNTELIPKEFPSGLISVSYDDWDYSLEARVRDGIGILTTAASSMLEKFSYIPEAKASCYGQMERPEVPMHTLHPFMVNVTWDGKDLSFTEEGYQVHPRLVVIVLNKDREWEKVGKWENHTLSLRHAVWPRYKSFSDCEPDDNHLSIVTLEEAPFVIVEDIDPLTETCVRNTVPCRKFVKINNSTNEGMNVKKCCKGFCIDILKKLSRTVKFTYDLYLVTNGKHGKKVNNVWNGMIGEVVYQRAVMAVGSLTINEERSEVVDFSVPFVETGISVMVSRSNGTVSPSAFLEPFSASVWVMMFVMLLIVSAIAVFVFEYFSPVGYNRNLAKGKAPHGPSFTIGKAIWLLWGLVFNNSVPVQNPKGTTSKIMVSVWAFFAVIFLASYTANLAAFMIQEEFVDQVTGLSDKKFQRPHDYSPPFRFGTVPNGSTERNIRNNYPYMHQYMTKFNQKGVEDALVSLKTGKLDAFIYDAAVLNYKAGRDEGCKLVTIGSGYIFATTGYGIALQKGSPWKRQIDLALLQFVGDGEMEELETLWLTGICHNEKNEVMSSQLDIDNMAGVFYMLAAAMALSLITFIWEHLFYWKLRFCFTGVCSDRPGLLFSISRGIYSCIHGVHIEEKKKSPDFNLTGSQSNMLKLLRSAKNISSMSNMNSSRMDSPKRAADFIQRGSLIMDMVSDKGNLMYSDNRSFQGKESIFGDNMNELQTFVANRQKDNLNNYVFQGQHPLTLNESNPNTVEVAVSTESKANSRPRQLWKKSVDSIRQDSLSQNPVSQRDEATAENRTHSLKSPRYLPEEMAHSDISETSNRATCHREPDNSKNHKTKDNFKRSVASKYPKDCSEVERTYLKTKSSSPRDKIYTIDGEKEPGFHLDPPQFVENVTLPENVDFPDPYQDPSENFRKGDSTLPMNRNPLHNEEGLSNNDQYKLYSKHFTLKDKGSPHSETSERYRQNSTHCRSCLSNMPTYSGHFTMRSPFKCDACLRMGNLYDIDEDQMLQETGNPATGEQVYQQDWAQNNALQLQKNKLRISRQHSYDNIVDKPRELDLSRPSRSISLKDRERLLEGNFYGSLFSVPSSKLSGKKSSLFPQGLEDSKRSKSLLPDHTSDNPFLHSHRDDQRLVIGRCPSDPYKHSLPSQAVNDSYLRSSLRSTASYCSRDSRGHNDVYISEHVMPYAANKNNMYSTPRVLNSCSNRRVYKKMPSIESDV
UniProt Q12879, 23-1464 R392E: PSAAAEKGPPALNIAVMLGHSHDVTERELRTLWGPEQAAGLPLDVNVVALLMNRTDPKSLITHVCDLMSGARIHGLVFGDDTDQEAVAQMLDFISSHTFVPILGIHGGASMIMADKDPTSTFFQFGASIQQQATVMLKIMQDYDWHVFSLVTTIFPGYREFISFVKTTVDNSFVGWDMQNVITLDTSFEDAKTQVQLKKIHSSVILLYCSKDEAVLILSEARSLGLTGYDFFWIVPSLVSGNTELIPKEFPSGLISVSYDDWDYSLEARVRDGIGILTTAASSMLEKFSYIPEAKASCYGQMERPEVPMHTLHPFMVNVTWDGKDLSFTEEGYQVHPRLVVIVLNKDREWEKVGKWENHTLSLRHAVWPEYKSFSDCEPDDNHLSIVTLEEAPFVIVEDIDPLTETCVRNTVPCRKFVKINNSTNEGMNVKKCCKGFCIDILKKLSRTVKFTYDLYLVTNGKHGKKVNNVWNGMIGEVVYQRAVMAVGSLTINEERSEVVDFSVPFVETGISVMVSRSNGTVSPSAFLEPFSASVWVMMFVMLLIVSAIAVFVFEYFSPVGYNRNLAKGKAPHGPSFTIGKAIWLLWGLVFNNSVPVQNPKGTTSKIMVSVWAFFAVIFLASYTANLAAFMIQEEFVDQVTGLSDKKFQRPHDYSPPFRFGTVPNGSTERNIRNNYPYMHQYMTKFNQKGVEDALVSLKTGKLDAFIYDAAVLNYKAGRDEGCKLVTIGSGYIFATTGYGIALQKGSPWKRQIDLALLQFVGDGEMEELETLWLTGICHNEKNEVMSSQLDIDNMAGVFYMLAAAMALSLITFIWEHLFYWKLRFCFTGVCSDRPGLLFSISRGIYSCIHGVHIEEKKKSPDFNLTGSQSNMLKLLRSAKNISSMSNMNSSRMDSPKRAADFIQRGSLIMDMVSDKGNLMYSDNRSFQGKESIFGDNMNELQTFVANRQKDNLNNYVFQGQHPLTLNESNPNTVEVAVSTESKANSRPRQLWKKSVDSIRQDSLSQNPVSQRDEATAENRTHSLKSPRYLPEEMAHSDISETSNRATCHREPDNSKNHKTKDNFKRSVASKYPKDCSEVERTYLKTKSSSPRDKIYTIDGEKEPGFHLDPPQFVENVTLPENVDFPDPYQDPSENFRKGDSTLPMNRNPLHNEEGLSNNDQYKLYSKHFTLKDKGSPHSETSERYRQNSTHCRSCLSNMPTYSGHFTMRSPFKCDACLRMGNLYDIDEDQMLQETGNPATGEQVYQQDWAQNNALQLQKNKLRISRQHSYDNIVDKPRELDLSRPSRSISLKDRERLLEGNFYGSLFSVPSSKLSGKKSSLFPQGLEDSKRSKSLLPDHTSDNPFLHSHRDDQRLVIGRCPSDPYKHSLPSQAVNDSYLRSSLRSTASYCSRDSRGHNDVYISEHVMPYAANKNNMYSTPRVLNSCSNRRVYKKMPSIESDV

Experiments:
Assay type in all cases: cell-based
[1] = biological target: wild-type NR2B NMDAR in HEK293 cells (Homo sapiens, UniProt Q05586+Q13224)
[2] = biological target: wild-type NR2A NMDAR in HEK293 cells (Homo sapiens, UniProt Q05586+Q12879)
[3] = biological target: mutant NR2A (R392E) NMDAR in HEK293 cells (Homo sapiens, UniProt Q05586+Q12879, R392E); experiment: Intracellular calcium response in HEK cells, NR2A R392E

## N[C@@H](CCC(=O)O)C(=O)O [glutamate]
[1]
  Receptor activation, % of 1 μM glutamate, wild-type NR2B: 22.3 ± 2.6%
[2]
  Receptor activation, % of 1 μM glutamate, wild-type NR2A: 32.8 ± 3.5 % of 1 μM glutamate
[3]
  Receptor activation, % of 1 μM glutamate, mutant NR2A (R392E): 29.4 ± 3.0%
